Among the data in patent publication US9868707B2, “Small molecule agonists of neurotensin receptor 1” (SANFORD-BURNHAM MEDICAL RESEARCH INSTITUTE, priority 2012, dated 2018) are Emax values, retold here.

Chains of the proteins cited; added tags and fusions are not shown.
UniProt P30989, whole entry, species assumed: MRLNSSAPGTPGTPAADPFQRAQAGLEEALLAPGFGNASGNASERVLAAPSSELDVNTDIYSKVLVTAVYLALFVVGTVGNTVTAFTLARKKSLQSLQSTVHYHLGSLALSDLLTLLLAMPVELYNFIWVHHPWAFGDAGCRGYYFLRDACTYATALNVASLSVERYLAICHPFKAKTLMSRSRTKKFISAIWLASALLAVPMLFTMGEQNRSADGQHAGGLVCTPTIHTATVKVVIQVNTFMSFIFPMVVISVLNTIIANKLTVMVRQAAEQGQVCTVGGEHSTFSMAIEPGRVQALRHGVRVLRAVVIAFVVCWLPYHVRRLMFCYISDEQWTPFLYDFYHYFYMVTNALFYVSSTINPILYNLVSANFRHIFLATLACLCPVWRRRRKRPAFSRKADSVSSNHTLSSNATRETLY

Structures are written as SMILES.

The test concerns the target NTR1 (Homo sapiens, UniProt P30989). The test is described as follows: NTR1 high-content imaging (HCS) dose response, NTR1-U2OS cells. Type of test: cell-based. The arrangement: host or cells: U2OS osteosarcoma. The following applies: n = 4 unless otherwise noted; read-out: HCS NTR1 Potency Emax. The text has this: The cell lines utilized in the high-content imaging assays, which include the NTR1-, NTR2-, and GPR35-U2OS osteosarcomas, were obtained from the laboratory of Dr. Lawrence Barak at the Duke University Medical Center. The media used in the culture of the cell lines, as well as the assays themselves, consisted of Minimum Essential Medium (15-010-CM) and L-glutamine (25-005-CL) from Cellgro/Mediatech (Manassas, Va.), fetal bovine serum (SH30396.03) from Hyclone (Logan, Utah), penicillin-streptomycin solution (PS-20) from Omega Scientific in Tarzana, Calif., G418 (ant-gn-1) from Invivogen (San Diego, Calif.), and zeocin (R250-01) from Invitrogen (Carlsbad, Calif.). Cell lines were cultured in T225 tissue culture flasks (431082) supplied by Corning (Corning, N.Y.). Additional reagents employed include Dulbecco's Phosphate-Buffered Saline (DPBS) (21-031CV) from Cellgro/Mediatech, Trypsin-EDTA 0.05% (25300) from Invitrogen, paraformaldehyde (30528954) from Acros Organics (Geel, Belgium), Hoechst 33342 (H3570) from Invitrogen. The high-content assays were run in 1536-well plates (29326) supplied by Aurora Biotechnology (Poway, Calif.) and utilized aluminum plate seals (T592100) from E&K Scientific (Santa Clara, Calif.).
The neurotensin 1 peptide (N6383) from Sigma-Aldrich (St. Louis, Mo.) was used as a positive control in the NTR1 primary HCS assay. […]

As for `COc1cc2nc(C3CC3)nc(N3CCN(Cc4ccc(C)cc4)CC3)c2cc1OC` [Compound 342, 2-cyclopropyl-6,7-dimethoxy-4-(4-(4-methylbenzyl)piperazin-1-yl)quinazoline], the Emax (as a rule, the greatest response seen or fitted, relative to the assay's reference) was 100%.
